{"source": "patent US20250134855A1", "about": "“CO[…] AND METHODS OF USING SAME” (LYKOS THERAPEUTICS, INC., priority 2022, published 2025)", "key": {"rats": {"system": "rats", "experiment": "28-day repeat-dose toxicity, weekly oral, rats", "conditions": "rats (≤20 mg/kg)"}, "dogs": {"system": "dogs", "experiment": "28-day repeat-dose toxicity, weekly oral, dogs", "conditions": "dogs (≤4 mg/kg)"}}, "data": [{"smiles": "CNC(C)Cc1ccc2c(c1)OCO2", "note": "(centres unmarked) [MDMA, 3,4-methylenedioxymethamphetamine]", "values": [{"measurement": "tolerability, 28-day repeat-dose", "setting": "rats", "value": "well tolerated with no mortality or significant toxicologic findings"}, {"measurement": "tolerability, 28-day repeat-dose", "setting": "dogs", "value": "well tolerated with no mortality or significant toxicologic findings"}]}]}
